Screens as filed in PubChem BioAssay.
Most compounds without a hit are left out; they make up all but 1.8% or so of the library.
Cneo AK release = causes C. neoformans cell lysis | 360,000 compounds, 0.2% hits | AID 651654 | lysis activity, % at 15 µM | adenylate kinase release luminescence, 4 h; normalised: neutral wells 0, clomiphene wells 100;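 active = mean lysis activity across replicates of at least 80%, whatever share of replicates individually reach that level; inactive = mean lysis activity below 80%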
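Test system: log-phase Cryptococcus neoformans yeast cells. Input: 5 × 10^6 yeast cells/mL. Medium: fresh YPD growth medium. Doses: single dose. Incubation: static 4 h at 37 °C with compound, 1 h detection. Measured by: luminescent adenylate kinase detection reagent. Read-out: signal increase indicating cell lysis. Benchmarks: Clomiphene.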
E-selectin induc = induces E-selectin expression in human endothelial cells; activation, % at 7.58 µM; 260,000 compounds, 0.37% hits; AID 686992; HUVEC E-selectin immunofluorescence imaging; normalized: neutral wells 0, TNF-alpha wells 100; P16581;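 active = mean E-selectin-positive cell signal at least 10% of the positive control, reached in at least 60% of replicates, without over 20% cell loss; inconclusive = no rule given, readout overlaps actives, possibly toxicity-flagged; inactive = the rest, including those meeting only one limit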
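material = human umbilical vein endothelial cells (HUVEC), E-selectin induction | quantity = 3,000 cells/well | medium = EGM-2 growth medium on 0.1% gelatin-coated wells | technique = immunofluorescence imaging | read-out basis = % PE-positive cells | control set = TNF-alpha positive control, DMSO neutral control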
DENV2 CPE rescue = inhibitors of DENV2 cytopathic effect | DENV2-infected cells, cytopathic effect rescue, plate reader | CPE inhibition, % at 9.99 µM | 350,000 compounds, 1.7% hits | AID 651640; in the data active = CPE inhibition above about 20%, passing the limit was not always enough; inconclusive = no clear call, values can overlap the other calls; tested in BHK-21 cells;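 also: 0% = median of neutral control wells and 100% = median of positive control wells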
Yeast UUG start = modulators of start codon recognition fidelity in yeast. S. cerevisiae UUG-firefly luciferase reporter, luminescence/redox ratio. activity score, % at 18.7 µM. 0.13% of 350,000 active. AID 602363;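 active = replicate mean at a twofold rise or more, about +100% in these data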;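 also: firefly luciferase made from a UUG start codon reports start codon fidelity; reporter light over untreated wells divided by growth signal over untreated wells; some hits fall short of that in this replicate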
Numbers without * were called inactive.

Screening O=C(Nc1cccc(C(F)(F)F)c1)c1cc[n+]([O-])cc1 returned E-selectin induc 27.3* and DENV2 CPE rescue -0.6.
Screening CC(C)(C)c1ccc(NC(=O)c2cc[n+]([O-])cc2)cc1 returned Cneo AK release -4.3, DENV2 CPE rescue -1.7 and Yeast UUG start -10.4.
Screening N#C[C@H]1[C@@H](c2ccccc2-c2cccc(F)c2)[C@H](CO)N1C(=O)C1CCC1 returned E-selectin induc -0.1 and DENV2 CPE rescue -10.0.
Screening COCC(=O)N1[C@H](CO)[C@@H](c2ccccc2-c2cccc(F)c2)[C@@H]1C#N returned E-selectin induc -0.1 and DENV2 CPE rescue -5.1.
`COCC(=O)N1[C@H](CO)[C@H](c2ccccc2-c2cccc(F)c2)[C@@H]1C#N` gave E-selectin induc 0.0 and DENV2 CPE rescue 32.9*.
Screening N#C[C@@H]1[C@@H](c2ccccc2-c2ccccc2)[C@H](CO)N1C(=O)Cc1cccnc1 returned E-selectin induc 0.3 and DENV2 CPE rescue -0.1.
`N#C[C@H]1[C@H](c2ccccc2-c2ccccc2)[C@@H](CO)N1C(=O)Cc1cccnc1` gave E-selectin induc -0.1 and DENV2 CPE rescue 35.1*.
`N#C[C@@H]1[C@@H](c2ccccc2-c2cccc(F)c2)[C@@H](CO)N1C(=O)C1CCC1` gave E-selectin induc -0.1 and DENV2 CPE rescue 29.2*.
C[C@@H]1CN([C@@H](C)CO)C(=O)Cc2cc(NC(=O)Nc3ccccc3)ccc2O[C@H]1CN(C)Cc1ccc(C(F)(F)F)cc1 was read as Cneo AK release 0.9, E-selectin induc 0.1, DENV2 CPE rescue -6.0 and Yeast UUG start 3.7.
For CNC[C@H]1Oc2c(NS(=O)(=O)c3ccc(C)cc3)cccc2C(=O)N([C@H](C)CO)C[C@H]1C the results were Cneo AK release 1.5, E-selectin induc 0.1, DENV2 CPE rescue 11.8 and Yeast UUG start -9.1.
`COCC(=O)N(C)C[C@H]1Oc2cc(-c3cccnc3)ccc2S(=O)(=O)N([C@H](C)CO)C[C@H]1C` gave Cneo AK release 3.3, E-selectin induc 0.6, DENV2 CPE rescue -7.8 and Yeast UUG start -11.8.
`N#C[C@H]1[C@@H](c2ccccc2C2=CCCC2)[C@H](CO)N1C(=O)C1CCC1` gave E-selectin induc 0.0 and DENV2 CPE rescue -5.3.
`N#C[C@@H]1[C@@H](c2ccccc2C2=CCCCC2)[C@@H](CO)N1S(=O)(=O)c1ccccc1` gave E-selectin induc 0.1 and DENV2 CPE rescue 20.8*.
N#C[C@H]1[C@@H](c2ccccc2C2=CCCC2)[C@H](CO)N1C(=O)C1CCCC1 was read as E-selectin induc -0.1 and DENV2 CPE rescue 41.1*.
N#C[C@@H]1[C@H](c2ccccc2C2=CCCC2)[C@H](CO)N1C(=O)C1CC1 was read as E-selectin induc 0.1 and DENV2 CPE rescue 21.8*.
For CCCNC(=O)N1[C@H](C#N)[C@@H](c2ccccc2C2=CCCC2)[C@@H]1CO the results were E-selectin induc -0.1 and DENV2 CPE rescue 23.3*.
Screening CC(=O)N[C@H]1C=C[C@@H](CC(=O)NCc2ccc(Cl)cc2)O[C@H]1CO returned Cneo AK release -3.7, E-selectin induc -0.4, DENV2 CPE rescue inconclusive and Yeast UUG start -13.8.
COc1ccc2c3c([nH]c2c1)[C@H](CO)N(C(C)=O)CC31CN(Cc2cc(-c3ccccc3)on2)C1 was read as E-selectin induc -0.2 and DENV2 CPE rescue 4.4.
Screening COc1ccc(S(=O)(=O)Nc2ccc3c(c2)[C@H]2C[C@@H](CC(=O)NCC4CC4)O[C@H](CO)[C@H]2O3)cc1 returned Cneo AK release -10.6, E-selectin induc -0.3 and DENV2 CPE rescue -4.5.
Screening N#C[C@H]1[C@@H](c2ccccc2C2=CCCCC2)[C@H](CO)N1C(=O)CN1CCOCC1 returned E-selectin induc 0.0 and DENV2 CPE rescue 43.0*.
For N#C[C@@H]1[C@@H](c2ccccc2C2=CCCCC2)[C@H](CO)N1C(=O)NC1CCCC1 the results were E-selectin induc -0.1 and DENV2 CPE rescue 73.3*.
Screening N#C[C@@H]1[C@H](c2ccc(C3=CCCCC3)cc2)[C@H](CO)N1C(=O)C1CCOCC1 returned Cneo AK release 4.7, E-selectin induc -0.3, DENV2 CPE rescue 29.7* and Yeast UUG start 7.9.
N#C[C@@H]1[C@H](c2ccc(-c3cncnc3)cc2)[C@@H](CO)N1C(=O)CN1CCOCC1 was read as Cneo AK release 2.6, E-selectin induc -0.3, DENV2 CPE rescue 50.4* and Yeast UUG start 1.6.
For N#C[C@@H]1[C@@H](c2ccccc2C2=CCCCC2)[C@@H](CO)N1C(=O)NC1CCCC1 the results were E-selectin induc -0.1 and DENV2 CPE rescue 8.0.
`N#C[C@@H]1[C@H](c2ccc(-c3cncnc3)cc2)[C@H](CO)N1C(=O)CN1CCOCC1` gave Cneo AK release 1.4, E-selectin induc -0.3, DENV2 CPE rescue 0.9 and Yeast UUG start -11.7.
`C[C@H]1CN([C@@H](C)CO)C(=O)c2cccc(NS(=O)(=O)c3ccc(F)cc3)c2O[C@@H]1CN(C)S(=O)(=O)c1ccccc1` gave Cneo AK release -3.7, E-selectin induc 0.2, DENV2 CPE rescue 0.9 and Yeast UUG start -10.4.
Screening COc1ccc(CNC(=O)C[C@H]2C[C@H]3c4cc(NC(=O)NC5CCCC5)ccc4O[C@H]3[C@@H](CO)O2)cc1 returned Cneo AK release 20.7, E-selectin induc 0.8, DENV2 CPE rescue 4.3 and Yeast UUG start -2.8.
`C[C@H]1CN([C@@H](C)CO)C(=O)c2cccc(NS(=O)(=O)c3ccc(Cl)cc3)c2O[C@H]1CN(C)Cc1ccc(-c2ccccc2)cc1` gave Cneo AK release 50.3, E-selectin induc -14.3, DENV2 CPE rescue 9.1 and Yeast UUG start 18.2.
For C[C@H]1CN([C@@H](C)CO)S(=O)(=O)c2ccc(-c3ccc(C(=O)N(C)C)cc3)cc2O[C@H]1CN(C)C(=O)C1CC1 the results were E-selectin induc -0.4.
`O=C(O)C(c1ccccc1)N1C(=O)c2ccccc2C1=O` (centres undefined) gave Cneo AK release 10.2, DENV2 CPE rescue 0.4 and Yeast UUG start -4.5.
O=C(O)CC(c1ccccc1)N1C(=O)c2ccccc2C1=O (centres undefined) was read as DENV2 CPE rescue 40.3*.
For CN(C)C(=O)[C@H]1[C@H](CO)[C@H]2Cn3c(ccc(-c4cccc(F)c4)c3=O)[C@@H]1N2Cc1ccccc1 the results were Cneo AK release -1.2, E-selectin induc 0.2 and DENV2 CPE rescue -2.2.
`CNC(=O)c1cc2c(ccc3ccccc32)o1` gave E-selectin induc 78.3* and DENV2 CPE rescue 4.0.
`O=C1C=C(c2cc(Cl)cc(Cl)c2)C[C@@H](c2ccc3c(c2)OCO3)C1` gave Cneo AK release -1.5, E-selectin induc -0.1, DENV2 CPE rescue 28.2* and Yeast UUG start -16.0.
For O=C1C=C(c2cccc(Cl)c2)C[C@@H](c2ccc(Cl)cc2)C1 the results were Cneo AK release 1.2, E-selectin induc 0.6, DENV2 CPE rescue 0.5 and Yeast UUG start -25.9.
Screening O=C1C=C(c2ccc(F)c(Cl)c2)C[C@@H](c2ccc(F)cc2)C1 returned Cneo AK release -1.6, E-selectin induc 0.2, DENV2 CPE rescue 23.3* and Yeast UUG start -11.4.

Quoted at random: four records from the list.
`CNC(=O)c1cc2c(ccc3ccccc32)o1` gave E-selectin induc 78.3* and DENV2 CPE rescue 4.0.
For O=C1C=C(c2cccc(Cl)c2)C[C@@H](c2ccc(Cl)cc2)C1 the results were Cneo AK release 1.2, E-selectin induc 0.6, DENV2 CPE rescue 0.5 and Yeast UUG start -25.9.
`O=C(O)C(c1ccccc1)N1C(=O)c2ccccc2C1=O` (centres undefined) gave Cneo AK release 10.2, DENV2 CPE rescue 0.4 and Yeast UUG start -4.5.
For N#C[C@@H]1[C@@H](c2ccccc2C2=CCCCC2)[C@@H](CO)N1C(=O)NC1CCCC1 the results were E-selectin induc -0.1 and DENV2 CPE rescue 8.0.
